Source: paper PMC4604408, “Targeting the Parasite's DNA with Methyltriazenyl Purine Analogs Is a Safe, Selective, and Efficacious Antitrypanosomal Strategy” (Antimicrobial Agents and Chemotherapy, 2015)
pEC50: −log10 of the molar value.

Tested on: HEK293 (human embryonic kidney 293T cells)
Test: extended alamarBlue cytotoxicity assay on human embryonic kidney cells
Details: read-out: In vitro activity (EC50) HEK293, mean ± SEM, n ≥ 3

O=[As]c1ccccc1 (stereo not shown)
pEC50: 6.03
